# Test system: SJSA-1 cells
# Assay: Cell viability assay (MTT, 72 h) SJSA-1
# Conditions: read-out: SJSA-1 EC50 (72 h), Table 26B
row,EC50,Compound
1,15 to 30 µM,5-FAM-BaLTF$5rn6EYWAQCba$5a5SAA-NH2 [SP463]
2,15 to 30 µM,"CCCC[C@H](NC(=O)[C@H](C)NC(=O)[C@H](C)NC(=O)[C@]1(C)CSCCCCCCCSC[C@@](C)(NC(=O)[C@H](Cc2ccccc2)NC(=O)[C@@H](NC(=O)[C@H](CC(C)C)NC(C)=O)[C@@H](C)O)C(=O)N[C@@H](C)C(=O)N[C@@H](Cc2ccc(O)cc2)C(=O)N[C@@H](Cc2c[nH]c3ccccc23)C(=O)N[C@@H](C)C(=O)N[C@@H](CCC(N)=O)C(=O)N[C@@H](CC(C)C)C(=O)N1)C(=O)N[C@@H](C)C(N)=O [SP916, Ac-LTF%cs7AYWAQL%c7AANleA-NH2]"

# Test system: p53+/+ cells relative to p53−/− cells
# Assay: EC50 ratio from MTT cell viability assays (p53+/+ cells vs p53−/− cells)
# Assay type: cell-based
# Conditions: ratio of average IC50 in p53+/+ cells relative to average IC50 in p53−/− cells
row,Compound,EC50 Ratio
1,CC(=O)N[C@@H](CC(C)C)C(=O)N[C@H](C(=O)N[C@@H](Cc1ccccc1)C(=O)N[C@]1(C)CCCCCC/C=C/CCC[C@@](C)(C(=O)N[C@@H](C)C(=O)N[C@@H](C)C(=O)N[C@@H](C)C(=O)N[C@@H](C)C(=O)N[C@@H](C)C(=O)NC(C)(C)C(N)=O)NC(=O)[C@H](CC(C)C)NC(=O)[C@H](CCC(N)=O)NC(=O)[C@H](C)NC(=O)[C@H](Cc2c[nH]c3ccccc23)NC(=O)[C@H](Cc2ccc(O)cc2)NC(=O)[C@H](CCC(=O)O)NC1=O)[C@@H](C)O [compound 567],≧50
2,CCCC[C@H](NC(=O)[C@H](C)NC(=O)[C@H](CO)NC(=O)[C@]1(C)CCCC=CCCCCCC[C@@](C)(NC(=O)[C@H](Cc2ccccc2)NC(=O)[C@@H](NC(=O)[C@H](CC(C)C)NC(C)=O)[C@@H](C)O)C(=O)N[C@@H](CCC(=O)O)C(=O)N[C@@H](Cc2ccc(C(=O)O)cc2)C(=O)N[C@@H](Cc2c[nH]c3ccccc23)C(=O)N[C@@H](C)C(=O)N[C@@H](CCC(N)=O)C(=O)N[C@@H](CC2CCC2)C(=O)N1)C(=O)N[C@@H](C)C(N)=O [compound 244],≧50
3,"CC(=O)N[C@@H](CC(C)C)C(=O)N[C@H](C(=O)N[C@@H](Cc1ccccc1)C(=O)N[C@]1(C)CCCCCCC=CCCC[C@@](C)(C(=O)N[C@@H](C)C(=O)N[C@@H](C)C(=O)N[C@@H](C)C(=O)N[C@@H](C)C(=O)N[C@@H](C)C(=O)N[C@@H](C)C(=O)N[C@H](C)C(N)=O)NC(=O)[C@H](CC(C)C)NC(=O)[C@H](CCC(N)=O)NC(=O)[C@H](C)NC(=O)[C@H](Cc2c[nH]c3ccccc23)NC(=O)[C@H](Cc2ccc(O)cc2)NC(=O)[C@H](C)NC1=O)[C@@H](C)O (single isomer, unassigned) [compound 316]",≧50
4,CC(=O)N[C@@H](CC(C)C)C(=O)N[C@H](C(=O)N[C@@H](Cc1ccccc1)C(=O)N[C@]1(C)CCCCCC/C=C/CCC[C@@](C)(C(=O)N[C@@H](CO)C(=O)N[C@@H](C)C(=O)N[C@@H](C)C(N)=O)NC(=O)[C@H](CCC(C)C)NC(=O)[C@H](CCC(N)=O)NC(=O)[C@H](C)NC(=O)[C@H](Cc2c[nH]c3ccccc23)NC(=O)[C@H](Cc2ccc(O)cc2)NC(=O)[C@H](C)NC1=O)[C@@H](C)O [compound 115],1-29
5,CC(=O)N[C@@H](CC(C)C)C(=O)N[C@H](C(=O)N[C@@H](Cc1ccccc1)C(=O)N[C@]1(C)CCCCCC/C=C/CCC[C@@](C)(C(=O)N[C@@H](C)C(=O)N[C@@H](C)C(=O)N[C@@H](C)C(=O)N[C@@H](C)C(=O)N[C@@H](C)C(=O)N[C@H](C)C(N)=O)NC(=O)[C@H](CC(C)C)NC(=O)[C@H](CCC(N)=O)NC(=O)[C@H](C)NC(=O)[C@H](Cc2c[nH]c3cc(Cl)ccc23)NC(=O)[C@H](Cc2ccc(O)cc2)NC(=O)[C@H](CCC(=O)O)NC1=O)[C@@H](C)O [compound 555],≧50
6,CC[C@H](C)[C@H](NC(=O)[C@H](C)NC(=O)[C@H](C)NC(=O)[C@]1(C)CCC/C=C/CCCCCC[C@@](C)(NC(=O)[C@H](Cc2ccccc2)NC(=O)[C@@H](NC(=O)[C@H](CC(C)C)NC(C)=O)[C@@H](C)O)C(=O)N[C@@H](CCC(=O)O)C(=O)N[C@@H](Cc2ccc(C(=O)O)cc2)C(=O)N[C@@H](Cc2c[nH]c3ccccc23)C(=O)N[C@@H](C)C(=O)N[C@@H](CCC(N)=O)C(=O)N[C@@H](CC2CCC2)C(=O)N1)C(=O)N[C@H](C)C(N)=O [compound 249],≧50
7,CC(=O)N[C@@H](CC(C)C)C(=O)N[C@H](C(=O)N[C@@H](Cc1ccccc1)C(=O)N[C@]1(C)CCCCCC/C=C/CCC[C@@](C)(C(=O)N[C@@H](C)C(=O)N[C@@H](C)C(=O)N[C@@H](C)C(=O)N[C@@H](C)C(=O)N[C@@H](C)C(=O)N[C@H](C)C(N)=O)NC(=O)[C@H](CC2CCC2)NC(=O)[C@H](CCC(N)=O)NC(=O)[C@H](CO)NC(=O)[C@H](Cc2c[nH]c3ccccc23)NC(=O)[C@H](Cc2ccc(O)cc2)NC(=O)[C@H](CCC(=O)O)NC1=O)[C@@H](C)O [compound 351],30-49
8,"CC(=O)N[C@@H](C)C(=O)N[C@@H](CC(C)C)C(=O)N[C@H](C(=O)N[C@@H](Cc1ccccc1)C(=O)N[C@]1(C)CCCCCCC=CCCC[C@@](C)(C(=O)N[C@@H](CO)C(=O)N[C@@H](C)C(=O)N[C@@H](C)C(=O)N[C@H](C)C(N)=O)NC(=O)[C@H](CC2CCC2)NC(=O)[C@H](CCC(N)=O)NC(=O)[C@H](C)NC(=O)[C@H](Cc2c[nH]c3ccccc23)NC(=O)[C@H](Cc2ccc(O)cc2)NC(=O)[C@H](CCC(=O)O)NC1=O)[C@@H](C)O (single isomer, unassigned) [compound 355]",1-29
9,CC(=O)N[C@@H](CC(C)C)C(=O)N[C@H](C(=O)N[C@@H](Cc1ccccc1)C(=O)N[C@]1(C)CCCCCCC=CCCC[C@@](C)(C(=O)N[C@@H](CO)C(=O)N[C@@H](C)C(=O)N[C@@H](CO)C(N)=O)NC(=O)[C@H](CC(C)C)NC(=O)[C@H](CCC(N)=O)NC(=O)[C@H](C)NC(=O)[C@H](Cc2c[nH]c3ccccc23)NC(=O)[C@H](Cc2ccc(O)cc2)NC(=O)[C@H](C)NC1=O)[C@@H](C)O [compound 122],1-29
10,CC(=O)N[C@@H](CC(C)C)C(=O)N[C@H](C(=O)N[C@@H](Cc1ccccc1)C(=O)N[C@]1(C)CCCCCC/C=C/CCC[C@@](C)(C(=O)N[C@@H](C)C(=O)N[C@@H](C)C(=O)N[C@@H](C)C(=O)N[C@@H](C)C(=O)N[C@@H](C)C(=O)N[C@H](C)C(N)=O)NC(=O)[C@H](CC2CCC2)NC(=O)[C@H](CCC(N)=O)NC(=O)[C@H](C)NC(=O)[C@H](Cc2c[nH]c3ccccc23)NC(=O)[C@H](Cc2ccc(C(=O)O)cc2)NC(=O)[C@H](CCC(=O)O)NC1=O)[C@@H](C)O [compound 349],30-49
11,CC(=O)N[C@@H](CCCNC(=N)N)C(=O)N[C@H](C(=O)N[C@@H](Cc1ccccc1)C(=O)N[C@]1(C)CCCCCCC=CCCC[C@@](C)(C(=O)N[C@@H](C)C(=O)N[C@@H](C)C(=O)N[C@@H](C)C(=O)N[C@@H](C)C(=O)N[C@@H](C)C(=O)N[C@H](C)C(N)=O)NC(=O)[C@H](CC(C)C)NC(=O)[C@H](CCC(N)=O)NC(=O)[C@H](C)NC(=O)[C@H](Cc2c[nH]c3ccccc23)NC(=O)[C@H](Cc2ccc(O)cc2)NC(=O)[C@H](CCC(=O)O)NC1=O)[C@@H](C)O [compound 559],≧50
12,CC(=O)N[C@@H](CC(C)C)C(=O)N[C@H](C(=O)N[C@@H](Cc1ccc(F)c(F)c1)C(=O)N[C@]1(C)CCCCCC/C=C/CCC[C@@](C)(C(=O)N[C@@H](CO)C(=O)N[C@@H](C)C(=O)N[C@@H](C)C(N)=O)NC(=O)[C@H](CCC(C)C)NC(=O)[C@H](CCC(N)=O)NC(=O)[C@H](C)NC(=O)[C@H](Cc2c[nH]c3ccccc23)NC(=O)[C@H](Cc2ccc(O)cc2)NC(=O)[C@H](CCC(=O)O)NC1=O)[C@@H](C)O [compound 160],1-29
13,CC(=O)N[C@@H](C)C(=O)N[C@@H](C)C(=O)N[C@@H](C)C(=O)N[C@@H](CC(C)C)C(=O)N[C@H](C(=O)N[C@@H](Cc1ccccc1)C(=O)N[C@]1(C)CCCCCC/C=C/CCC[C@@](C)(C(=O)N[C@@H](C)C(=O)N[C@@H](C)C(=O)N[C@@H](C)C(=O)N[C@@H](C)C(=O)N[C@@H](C)C(=O)N[C@H](C)C(N)=O)NC(=O)[C@H](CC(C)C)NC(=O)[C@H](CCC(N)=O)NC(=O)[C@H](C)NC(=O)[C@H](Cc2c[nH]c3ccccc23)NC(=O)[C@H](Cc2ccc(O)cc2)NC(=O)[C@H](CCC(=O)O)NC1=O)[C@@H](C)O [compound 557],≧50
14,CC(=O)N[C@@H](CC(C)C)C(=O)N[C@H](C(=O)N[C@@H](Cc1ccccc1)C(=O)N[C@]1(C)CCCCCCCCCCC[C@@](C)(C(=O)N[C@@H](C)C(=O)N[C@@H](C)C(=O)N[C@@H](C)C(=O)N[C@@H](C)C(=O)N[C@@H](C)C(=O)N[C@H](C)C(N)=O)NC(=O)[C@H](CC(C)C)NC(=O)[C@H](CCC(N)=O)NC(=O)[C@H](C)NC(=O)[C@H](Cc2c[nH]c3ccccc23)NC(=O)[C@H](Cc2ccc(O)cc2)NC(=O)[C@H](CCC(=O)O)NC1=O)[C@@H](C)O [compound 445],≧50
15,"CC(=O)N[C@@H](CC(C)C)C(=O)N[C@H](C(=O)N[C@@H](Cc1ccccc1)C(=O)N[C@]1(C)CCCCCCC=CCCC[C@@](C)(C(=O)N[C@@H](C)C(=O)N[C@@H](C)C(=O)N[C@@H](Cc2ccccc2)C(=O)N[C@H](C)C(N)=O)NC(=O)[C@H](CC(C)C)NC(=O)[C@H](CCC(N)=O)NC(=O)[C@H](C)NC(=O)[C@H](Cc2c[nH]c3ccccc23)NC(=O)[C@H](Cc2ccc(O)cc2)NC(=O)[C@H](CCC(=O)O)NC1=O)[C@@H](C)O (single isomer, unassigned) [compound 219]",1-29
16,CC(=O)N[C@@H](CC(C)C)C(=O)N[C@H](C(=O)N[C@@H](Cc1ccccc1)C(=O)N[C@]1(C)CCCCC#CC#CCCC[C@@](C)(C(=O)N[C@@H](C)C(=O)N[C@@H](C)C(=O)N[C@@H](C)C(=O)N[C@@H](C)C(=O)N[C@@H](C)C(=O)N[C@H](C)C(N)=O)NC(=O)[C@H](CC(C)C)NC(=O)[C@H](CCC(N)=O)NC(=O)[C@H](C)NC(=O)[C@H](Cc2c[nH]c3ccccc23)NC(=O)[C@H](Cc2ccc(O)cc2)NC(=O)[C@H](C)NC1=O)[C@@H](C)O [compound 662],≧50
17,CC(=O)N[C@@H](CC(C)C)C(=O)N[C@H](C(=O)N[C@@H](Cc1ccccc1)C(=O)N[C@]1(C)CCCCCCC=CCCC[C@@](C)(C(=O)N[C@@H](CO)C(=O)N[C@@H](C)C(=O)N[C@@H](C)C(N)=O)NC(=O)[C@H](CC2CCC2)NC(=O)[C@H](CCC(N)=O)NC(=O)[C@H](CNC(=O)c2cc3ccc(O)cc3oc2=O)NC(=O)[C@H](Cc2c[nH]c3ccccc23)NC(=O)[C@H](Cc2ccc(O)cc2)NC(=O)[C@H](CCC(=O)O)NC1=O)[C@@H](C)O [compound 433],1-29
